Reference: patent US12542197B2

Sequences of proteins named here, by UniProt entry; tags and fusion partners are left off.
UniProt P00519, whole entry: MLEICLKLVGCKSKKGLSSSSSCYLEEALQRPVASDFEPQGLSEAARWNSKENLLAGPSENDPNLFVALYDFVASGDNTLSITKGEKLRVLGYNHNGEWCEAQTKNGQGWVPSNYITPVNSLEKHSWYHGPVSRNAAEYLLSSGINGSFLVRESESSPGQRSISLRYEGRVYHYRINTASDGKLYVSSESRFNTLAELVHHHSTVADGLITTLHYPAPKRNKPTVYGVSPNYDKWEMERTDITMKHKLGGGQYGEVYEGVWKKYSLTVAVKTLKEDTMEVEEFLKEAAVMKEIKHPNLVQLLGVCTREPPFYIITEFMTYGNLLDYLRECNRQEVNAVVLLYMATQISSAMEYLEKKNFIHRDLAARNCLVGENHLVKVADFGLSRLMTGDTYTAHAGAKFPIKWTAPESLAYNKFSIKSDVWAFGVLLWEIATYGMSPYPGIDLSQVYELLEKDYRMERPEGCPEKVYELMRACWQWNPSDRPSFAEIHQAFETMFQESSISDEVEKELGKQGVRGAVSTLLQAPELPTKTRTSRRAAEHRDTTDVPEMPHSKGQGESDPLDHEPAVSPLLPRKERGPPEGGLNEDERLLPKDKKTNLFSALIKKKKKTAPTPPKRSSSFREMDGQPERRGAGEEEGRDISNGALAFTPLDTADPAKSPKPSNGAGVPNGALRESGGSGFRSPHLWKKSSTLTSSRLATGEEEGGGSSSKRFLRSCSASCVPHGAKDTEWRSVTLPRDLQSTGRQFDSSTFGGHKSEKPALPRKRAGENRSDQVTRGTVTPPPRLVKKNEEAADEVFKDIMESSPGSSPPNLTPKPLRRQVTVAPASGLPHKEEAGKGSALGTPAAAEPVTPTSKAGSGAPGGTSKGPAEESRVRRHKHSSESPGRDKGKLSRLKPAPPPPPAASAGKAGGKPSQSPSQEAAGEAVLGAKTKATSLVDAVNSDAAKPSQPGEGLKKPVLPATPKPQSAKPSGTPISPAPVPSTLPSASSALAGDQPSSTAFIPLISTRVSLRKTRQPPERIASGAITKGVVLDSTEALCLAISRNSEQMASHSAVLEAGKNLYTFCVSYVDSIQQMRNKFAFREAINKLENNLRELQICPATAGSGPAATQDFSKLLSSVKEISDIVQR

Target: protein ABL1 (Homo sapiens, UniProt P00519)
Experiment: Activity (binding force, IC50) against protein ABL1
Settings: read-out: binding force, IC50 (50% inhibitory concentration); ligand for protein ABL1 (kinase), FIG. 12A

How did the IC50 turn out when `COc1ccccc1Oc1ccc2[nH]nc(-c3nc4ccc(N5CCC(N6CCCCC6)CC5)cc4[nH]3)c2c1` was run?
Its IC50 is 1000 nM.
